Tested on: Serotonin Reuptake
Assay: in vitro inhibition of serotonin uptake ([3H]-5HT uptake into whole rat brain synaptosomes)
Assay type: biochemical, rat (Male CR Wistar rats)
Conditions: rat whole brain (minus cerebellum) synaptosomes; 50 nM [3H]-5HT; 5 minutes at 37° C.; pH 7.4; log probit analysis
Source text: The aminoalkyloximes of the present invention are useful as agents for the alleviation of depression and affective disorders such as obsessive compulsive disorders, particularly those associated with serotonergic hypofunction. See, for example, W. K. Goodman, et al., Archives of General Psychiatry, 47, 577 (1990). […] In this assay, a modification of the tests described by A. S. Horn and R. C. A. M. Trace, British Journal of Pharmacology, 51, 399 (1974), A. Nagy and A. V. Delgado-Escueta, Journal of Neurochemistry, 43, 1114 (1984) and P. R. Dunkley, et al., Brain Research, 372, 115 (1986), the following reagents are prepared and employed:
Male CR Wistar rats (100-125 g)
3. Sucrose solution: 0.32M sucrose containing 5 mM HEPES and 0.1 mM EDTA; pH to 7.3 using Tris base.
4. A 0.1 mM stock solution of serotonin creatinine SO4 is made up in 0.01N HCl. This is used to dilute the specific activity of radiolabeled 5HT.
5. 5-[1,2-^3 H(N)]-Hydroxytryptamine creatinine sulfate (serotonin), specific activity 20-30 Ci/mmol, is used. The final desired concentration of [^3 H]-5HT in the assay is 50 nM. The dilution factor is 0.8. The KHBB is made up to contain 62.5 nM of [^3 H]-5HT.
6. […]

Row | SMILES | IC50
1 | CN(C)CCC=C1c2ccccc2CCc2ccccc21 [Amitriptyline, reference compound] | 0.091 µM
2 | CNCCC(Oc1ccc(C(F)(F)F)cc1)c1ccccc1 (centres unmarked) [Fluoxetine, reference compound] | 0.042 µM

— patent publication US5648367A, “Aminoalkyloximes” (Hoechst Marion Roussel, Inc., priority 1995, dated 1997)
